One molecule from BindingDB's records for doi:10.1111/cbdd.12243 (Shandong Institute of Pharmaceutical Industry, 2014) can be followed below.

By UniProt entry, the sequences of proteins in these tests, tags left out.
UniProt Q504U8, whole entry: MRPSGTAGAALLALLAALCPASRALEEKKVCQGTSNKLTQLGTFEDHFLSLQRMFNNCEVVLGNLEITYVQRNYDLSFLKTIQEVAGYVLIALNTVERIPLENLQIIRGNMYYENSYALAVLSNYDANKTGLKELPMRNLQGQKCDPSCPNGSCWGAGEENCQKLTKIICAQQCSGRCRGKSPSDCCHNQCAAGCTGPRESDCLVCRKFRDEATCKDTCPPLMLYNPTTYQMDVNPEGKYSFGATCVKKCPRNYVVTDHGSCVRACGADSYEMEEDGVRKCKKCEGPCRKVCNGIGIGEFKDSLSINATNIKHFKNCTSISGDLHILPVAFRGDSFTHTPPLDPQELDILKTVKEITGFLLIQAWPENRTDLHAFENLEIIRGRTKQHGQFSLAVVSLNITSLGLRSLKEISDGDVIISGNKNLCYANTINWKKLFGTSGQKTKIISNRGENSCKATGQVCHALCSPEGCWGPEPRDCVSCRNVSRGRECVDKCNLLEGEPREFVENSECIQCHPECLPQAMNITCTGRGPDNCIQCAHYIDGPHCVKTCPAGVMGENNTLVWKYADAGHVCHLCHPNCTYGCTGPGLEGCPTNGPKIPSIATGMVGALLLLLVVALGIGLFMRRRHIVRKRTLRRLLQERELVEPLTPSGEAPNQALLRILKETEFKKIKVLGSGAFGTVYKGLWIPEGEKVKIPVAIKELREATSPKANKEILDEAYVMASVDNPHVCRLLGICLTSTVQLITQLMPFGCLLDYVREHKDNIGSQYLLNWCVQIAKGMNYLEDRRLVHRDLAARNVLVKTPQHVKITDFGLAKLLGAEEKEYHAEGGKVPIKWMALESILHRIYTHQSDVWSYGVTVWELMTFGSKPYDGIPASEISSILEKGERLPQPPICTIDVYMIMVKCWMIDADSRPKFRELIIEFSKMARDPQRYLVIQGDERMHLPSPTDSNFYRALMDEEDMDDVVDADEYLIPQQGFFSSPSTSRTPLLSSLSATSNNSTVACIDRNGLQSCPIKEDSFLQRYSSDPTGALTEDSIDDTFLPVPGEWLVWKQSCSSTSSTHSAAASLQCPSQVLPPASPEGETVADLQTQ

The assay deals with Receptor protein-tyrosine kinase (Homo sapiens, UniProt Q504U8). Put plainly: Z-LYTE biochemical assay. The settings on record: 25 °C. The procedure: The reaction was stopped by the addition of 5 µL stop reagent.

Structures are written as SMILES.

A word on the IC50: it is the concentration at which inhibition is half-maximal. The molecule `Cc1ccc(Nc2nccc(N(C)c3ccc4c(C)n(C)nc4c3)n2)cc1S(N)(=O)=O` [GW-786034] had an IC50 of 5.95 µM. That is a single-digit micromolar value.
